Literature values in publication PMC3137231 (ACS Medicinal Chemistry Letters, 2011).

The chains behind the UniProt entries cited, without tags or fusion partners.
UniProt P51681, whole entry: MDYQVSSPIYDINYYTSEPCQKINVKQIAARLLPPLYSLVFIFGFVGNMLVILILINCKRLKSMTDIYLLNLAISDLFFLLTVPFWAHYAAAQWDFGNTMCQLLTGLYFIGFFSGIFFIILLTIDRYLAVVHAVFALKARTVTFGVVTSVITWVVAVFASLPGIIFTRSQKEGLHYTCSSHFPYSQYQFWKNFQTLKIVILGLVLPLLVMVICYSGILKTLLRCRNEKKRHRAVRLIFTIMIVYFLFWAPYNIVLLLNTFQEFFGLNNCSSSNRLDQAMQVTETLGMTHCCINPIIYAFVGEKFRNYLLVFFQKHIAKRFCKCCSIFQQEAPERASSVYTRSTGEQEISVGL

Biological target: CCR5 (Homo sapiens, UniProt P51681)
Settings: SPR; cited from earlier work

For Maraviroc, the Kd is given as 25 nM.
